Results reported in PMC4373786.

Target: angiotensin II receptor type 1 (AT1), non-BRET tagged (UniProt P30556)
Details: scale: log of EC50

angiotensin II (AngII) (peptide)
AngII LogEC50 of IP1 production, cells expressing AT1 receptor, 0 nM CCL2: -8.61 | AngII LogEC50 of IP1 production, cells expressing AT1 receptor, 10 nM CCL2: -8.65 | AngII LogEC50 of IP1 production, cells expressing AT1 receptor, 1000 nM CCL2: -8.85
